The record followed here is patent US20180057595A1 (CELLDEX THERAPEUTICS, published 2018).

The chains are these.
B1: Ab235 (antibody, mouse IgG1, V domains shown)
VH: QVQLQQSGAELMKPGASVKISCKATGYTFSNYWIEWVKQRPGHGLEWIGEILPGSDYTKYNEKFKGKATFTADTSSNTAYMQLSSLTSEDSAVYYCARPSTIPPDCWGQGTTLTVSA
VL: QIVLTQSPAIMSTSPGEKVTMTCSASSSVNYMFWYQQKAGSSPRLLIYDTFNLASGVPVRFSGSGSGTSYSLTISRMEAEDAATYYCQQWSIYPYTFGGGTKLEIKR
notes: Mouse IgG1, kappa
B2: Ab236 (antibody, mouse IgG1, V domains shown)
VH: B1 VH with V2A, T28I, N31S, Y57F, T58I, N61S, S85N, I102V
VL: B1 VL with T13A, N30S, A39P, F51S, N52D, I92N
notes: Mouse IgG1, kappa
B3: Ab237 (antibody, rat IgG2a, V domains shown)
VH: EVQLVESGGGLVQPGRSLKLSCAASGFTFSDSYMAWVRQAPTKGLEWVASISSDGGGTYYRDSVKGRFSISRDNAKSSLYLQMDSLRSEDTATYYCTTEGIYTTDYYPYCFNYWGHGVMVTVSA
VL: DIQMTQSPGSLSASLGETVTIECLASADIHSNLAWYQQKPGNSPQLLIYYGNNLNDGVPSRFSGSGSGTQYSLKINSLQSEDVSIYFCQQSYDSPPTFGAGTKLEIKR
notes: Rat IgG2a, kappa
B4: Ab248 (antibody, human IgG1, V domains shown)
VH: B3 VH with R16G, T42G, S69T, D84N, S88T, H116Q, A124S
VL: DIQMTQSPSSLSASVGDRVTITCLASADIHSNLAWYQQKPGKAPKLLIYYGNNLNDGVPSRFSGSGSGTDYTLTISSLQPEDVAIYFCQQSYDSPPTFGQGTKLEIKR
notes: Composite human (humanized) antibody, human IgG1, kappa
B5: Ab242 (antibody, human IgG1, V domains shown)
VH: B3 VH with R16G, T42G, S69T, S88T, H116Q, A124S
VL: B4 VL with S65F, S67F, P80S
notes: as for B4
B6: Ab246 (antibody, human IgG1, V domains shown)
VH: B3 VH with R16G, T42G, S69T, D84N, S88T, H116Q, A124S
VL: B4 VL with K45Q, T74K, S76N, P80S
notes: as for B4
B7: Ab245 (antibody, human IgG1, V domains shown)
VH: B3 VH with R16G, T42G, S69T, S88T, H116Q, A124S
VL: B4 VL with Y71F, I85T
notes: as for B4
B8: Ab244 (antibody, human IgG1, V domains shown)
VH: B3 VH with R16G, T42G, S69T, S88T, H116Q, A124S
VL: B4 VL with Y71F
notes: as for B4
B9: Ab254 (antibody, human IgG1, V domains shown)
VH: B3 VH with R16G, T42G, S69T, S77N, D84N, S88T, H116Q, V118T, A124S
VL: B4 VL with Y71F
notes: as for B4
B10: Ab247 (antibody, human IgG1, V domains shown)
VH: B3 VH with R16G, T42G, S69T, D84N, S88T, H116Q, A124S
VL: B4 VL with S65F, S67F, P80S
notes: as for B4
B11: Ab255 (antibody, human IgG1, V domains shown)
VH: B3 VH with R16G, T42G, S69T, S77N, D84N, S88T, H116Q, V118T, A124S
VL: B4 VL with Y71F, I85T
notes: as for B4
B12: Ab253 (antibody, human IgG1, V domains shown)
VH: B3 VH with R16G, T42G, S69T, S77N, D84N, S88T, H116Q, V118T, A124S
VL: B4 VL
notes: as for B4
B13: Ab250 (antibody, human IgG1, V domains shown)
VH: B3 VH with R16G, T42G, S69T, D84N, S88T, H116Q, A124S
VL: B4 VL with Y71F, I85T
notes: as for B4
B14: Ab251 (antibody, human IgG1, V domains shown)
VH: B3 VH with R16G, T42G, S69T, S77N, D84N, S88T, H116Q, V118T, A124S
VL: B4 VL with K45Q, T74K, S76N, P80S
notes: as for B4
B15: Ab252 (antibody, human IgG1, V domains shown)
VH: B3 VH with R16G, T42G, S69T, S77N, D84N, S88T, H116Q, V118T, A124S
VL: B4 VL with S65F, S67F, P80S
notes: as for B4
B16: Ab243 (antibody, human IgG1, V domains shown)
VH: B3 VH with R16G, T42G, S69T, S88T, H116Q, A124S
VL: B4 VL
notes: as for B4
B17: Ab249 (antibody, human IgG1, V domains shown)
VH: B3 VH with R16G, T42G, S69T, D84N, S88T, H116Q, A124S
VL: B4 VL with Y71F
notes: as for B4
B18: Ab235C (antibody, human IgG1, V domains shown)
VH: B1 VH
VL: B1 VL

The term EC50 denotes the midpoint of the concentration-response curve. As a reminder, the IC50 is the concentration needed to halve the response being measured.

Substitutions are numbered along the chain they refer to.

One experiment addresses T1, human MET, cell-surface expressed (human, UniProt P08581 25-1390).
T1 construct: whole, on cells; Used for all assays on cells that carry wild-type human MET; the cell line is named under assay or readout; also called c-Met; hMET
The experiment can be described thus: FACS on A549 cells, cell surface MET.
Consider B1, for which the concentration for a half-maximal effect (EC50) worked out at 1.4 nM.
In turn, B2 displayed a concentration for a half-maximal effect (EC50) of 0.5 nM.
B3 had an EC50 of 0.4 nM.

For a further experiment, the target named is T1, human MET, cell-surface expressed. As to the kind of experiment: FACS competition on A549 cells; competitor Alexa-647-labelled Ab235.
B1 registered an IC50 of about 3 nM.
In turn, B2 showed an IC50 of about 1 nM.
Still for that read-out and setting: the figure for B3 is about 0.5 nM.

For the next experiment, the target named is T2, human MET-ECD with a His tag (MET-ECD-His) (human, UniProt P08581 25-932).
T2 construct: The ELISA sections speak of MET-ECD, MET-ECD-His or His-tagged MET extracellular domain; also called hu-MET-ECD; human cMET ECD
The experiment can be described thus: competition ELISA on immobilised MET-ECD; competitor Ab237C. Background: An ELISA detects its analyte on a solid surface through an enzyme-linked reagent.
B4: the “IC50 relative to the IC50 of Ab237C” value was ~1.04 relative to IC50 of Ab237C.
On the same count and under the same terms, the figure for B5 is ~0.82 relative to IC50 of Ab237C; for B6 it is ~0.81 relative to IC50 of Ab237C.
Same read-out and setting: the figure for B7 is ~1.09 relative to IC50 of Ab237C; for B8 it is ~1.07 relative to IC50 of Ab237C; for B9 it is ~0.8 relative to IC50 of Ab237C.
On to B10, for which the “IC50 relative to the IC50 of Ab237C” value was ~0.82 relative to IC50 of Ab237C.
B11: the “IC50 relative to the IC50 of Ab237C” value is ~0.9 relative to IC50 of Ab237C.
For B12, the “IC50 relative to the IC50 of Ab237C” value is ~0.94 relative to IC50 of Ab237C.
Take B13: the “IC50 relative to the IC50 of Ab237C” value was ~1.13 relative to IC50 of Ab237C.
Take B14: the “IC50 relative to the IC50 of Ab237C” value is ~0.98 relative to IC50 of Ab237C.
Same read-out and setting: in the case of B15 it was ~0.99 relative to IC50 of Ab237C; in that of B16, ~0.92 relative to IC50 of Ab237C.
As for B17, the “IC50 relative to the IC50 of Ab237C” value is ~1 relative to IC50 of Ab237C.

In another experiment the target is T1, human MET, cell-surface expressed. The experiment can be described thus: FACS competition on A549 cells; competitor Ab237C. The method, then:
The binding of anti-MET antibodies to cell surface MET was analyzed by competition FACS analysis using A549 NSCLC cells (ATCC cat. no. CCL-185). […] A total of 3×10⁵ A549 NSCLC cells were added per dilution of antibody and incubated on ice for 1 hour. Cells were washed and a 1:100 dilution of PE-labeled goat anti-rat IgG antibody (BioLegend cat. no. 405406) in FACS buffer was added before incubation on ice for 1 hour. […] The geometric mean fluorescence intensity was plotted against antibody concentration. The IC₅₀ of each of the test antibodies was calculated relative to the IC₅₀ of the reference antibody.
Regarding B4, the “relative IC50 (against Ab237C)” value was ~1.17 relative to IC50 of Ab237C.
As for B5, the “relative IC50 (against Ab237C)” value was ~1.03 relative to IC50 of Ab237C.
The same measure, in the same setting: in the case of B6 it was ~1.15 relative to IC50 of Ab237C.
For the molecule B7, the “relative IC50 (against Ab237C)” value is ~0.86 relative to IC50 of Ab237C.
In the case of B8, the “relative IC50 (against Ab237C)” value is ~0.93 relative to IC50 of Ab237C.
B9: the “relative IC50 (against Ab237C)” value was ~0.78 relative to IC50 of Ab237C.
On the same count and under the same terms, the figure for B10 is ~1.01 relative to IC50 of Ab237C; for B11 it is ~0.72 relative to IC50 of Ab237C.
Same read-out and setting: the figure for B12 is ~0.91 relative to IC50 of Ab237C; for B13 it is ~0.86 relative to IC50 of Ab237C; for B14 it is ~0.99 relative to IC50 of Ab237C.
Still for that read-out and setting: the figure for B15 is ~1.06 relative to IC50 of Ab237C; for B16 it is ~1.07 relative to IC50 of Ab237C; for B17 it is ~0.7 relative to IC50 of Ab237C.

The next experiment addresses T2, human MET-ECD with a His tag …. The experiment can be described thus: ELISA on recombinant MET-ECD.
For B1, the EC50 turned out to be 1.2 nM.
For B2, the EC50 was determined as 0.45 nM.
Turning to B3, the EC50 was 0.14 nM.

A further experiment shares this target. As to the kind of experiment: ELISA on coated human MET-ECD. The method, then:
To measure antibody binding by ELISA, 10 μg of human, murine or chimeric MET-ECD was coated onto 96-well plates (Costar). Serial dilutions of antibodies were added to the plates and incubated at room temperature for 1 hr prior to the addition of HRP-conjugated secondary antibody. Luminescence was measured with BioTek SYNERGY™ HT plate reader, and binding EC₅₀ values were determined using […] PRISM® software.
As to B1, the EC50 came out at 0.13 nM.
Turning to B2, the EC50 came to 0.05 nM.
Take B3: the EC50 is 0.02 nM.

The target is the same in the next experiment. As to the kind of experiment: ELISA, immobilised His-tagged MET ECD; displacement of biotinylated HGF (0.3 nM).
In turn, B1 displayed an IC50 of about 2 nM.
The molecule B2 had an IC50 of about 0.5 nM.
The molecule B3 yielded an IC50 of about 0.5 nM.

A further experiment concerns the target MET without the 47 amino acids encoded by exon 14 (H596 cells) (human, UniProt P08581 25-1390). As to the kind of experiment: cell-based or functional assay.
Take B1: the “IC50, tumor cell proliferation with HGF, H596 cells” value was about 0.8 nM.
On the same count and under the same terms, in the case of B2 it was about 0.6 nM.
For B3, the “IC50, tumor cell proliferation with HGF, H596 cells” value was about 0.08 nM.

Another experiment addresses T1, human MET, cell-surface expressed. The experiment can be described thus: cell-based or functional assay.
With B1, the “IC50, HGF-induced DU145 cell scatter” value was about 0.48 nM; the “IC50, HGF-induced phosphorylation of MET Tyr1234/Tyr1235, ELISA, A549 cells” value was about 217 pM; the “IC50, tumor cell proliferation with HGF, A549 cells” value is about 6.6 nM; the “IC50, tumor cell proliferation with HGF, U87MG cells” value is about 25 nM.
For the molecule B18, the “IC50, MET Tyr1234/Tyr1235 phosphorylation, ELISA, U87MG cells” value was about 71 pM.
With B2, the “IC50, HGF-induced DU145 cell scatter” value is about 0.08 nM; the “IC50, HGF-induced phosphorylation of MET Tyr1234/Tyr1235, ELISA, A549 cells” value was about 76 pM; the “IC50, MET Tyr1234/Tyr1235 phosphorylation, ELISA, U87MG cells” value is about 47 pM; the “IC50, tumor cell proliferation with HGF, A549 cells” value is about 6.3 nM. The “IC50, tumor cell proliferation with HGF, U87MG cells” value was about 9 nM.
The corresponding values for B3 are about 0.08 nM, about 40 pM, about 43 pM, about 1.7 nM and about 5.5 nM.
For B7, the “relative IC50 (against Ab237C), HGF-induced MET phosphorylation, ELISA” value (from here on “relative IC50 (against Ab237C) … ELISA”) was ~0.23 relative to IC50 of Ab237C.
In the case of B8, the “relative IC50 (against Ab237C) … ELISA” value is ~0.44 relative to IC50 of Ab237C.
On the same count and under the same terms, in the case of B9 it was ~0.23 relative to IC50 of Ab237C; in that of B11, ~0.25 relative to IC50 of Ab237C; in that of B13, ~0.21 relative to IC50 of Ab237C.
As for B17, the “relative IC50 (against Ab237C) … ELISA” value was ~0.47 relative to IC50 of Ab237C.
